According to ChEMBL document CHEMBL4321856:

Columns and labels:
Mu-type opioid receptor = Mu-type opioid receptor (Rattus norvegicus, UniProt P33535); assay: Displacement of [3H]DAMGO from rat MOR expressed in CHO cell membranes incubated for 30 mins by liquid scintillation counting
[1] = biological target: T1, Kappa-type opioid receptor (Homo sapiens, UniProt P41145); assay: Displacement of [3H]U69593 from human KOR expressed in CHO cell membranes incubated for 30 mins by liquid scintillation counting
[2] = biological target: T2, Delta-type opioid receptor (Rattus norvegicus, UniProt P33533); assay: Displacement of [3H]DPDPE from rat DOR expressed in CHO cell membranes incubated for 30 mins by liquid scintillation counting
Mus musculus [3] = assay: Induction of sedation in Kunming mouse assessed as inhibition of novelty-induced locomotor activity at 2.7 mg/kg, ip treated for 2 hrs before placing animal into locomotor chambers and monitored for 30 mins; conditions: in vivo, 0.5 h
Mus musculus [4] = assay: Antinociceptive activity in ip dosed Kunming mouse assessed as reduction in nociceptive response after 2 hrs by hot plate test
Mus musculus [5] = assay: Induction of sedation in Kunming mouse assessed as inhibition of novelty-induced locomotor activity at 0.3 mg/kg, ip treated for 2 hrs before placing animal into locomotor chambers and monitored for 30 mins; conditions: in vivo, 0.5 h
[6] = biological target: T1, Kappa-type opioid receptor; assay: Agonist activity at human KOR expressed in CHO cell membranes assessed as stimulation of [35S]GTPgammaS binding incubated for 1 hr by liquid scintillation counting
Mus musculus [7] = assay: Antinociceptive activity in ip dosed Kunming mouse assessed as reduction in nociceptive response after 2 hrs by acetic acid-induced abdominal constriction test
[8] = biological target: T2, Delta-type opioid receptor; assay: Agonist activity at rat DOR expressed in CHO cell membranes assessed as stimulation of [35S]GTPgammaS binding incubated for 1 hr by liquid scintillation counting
Mus musculus [9] = assay: Induction of sedation in Kunming mouse assessed as inhibition of novelty-induced locomotor activity at 5 mg/kg, ip treated for 30 mins before placing animal into locomotor chambers and monitored for 30 mins; conditions: in vivo, 0.5 h

In the case of COc1ccc2c3c1O[C@H]1[C@@]4(OC)CC[C@@]5(C[C@@H]4c4ccc(NCC(N)=O)cc4)[C@@H](C2)N(CC2CC2)CC[C@]315, the Ki (Mu-type opioid receptor) is reported as 40.5 nM, the Ki [1] is reported as 16.1 nM and the Ki [2] is reported as 57.3 nM.

COc1ccc2c3c1O[C@H]1[C@@]4(OC)CC[C@@]5(C[C@@H]4c4ccc(NC(=O)c6ccccc6)cc4)[C@@H](C2)N(CC2CC2)CC[C@]315 was tested, and the Activity (Mus musculus [3]) was “Toxic”, the ED50 (Mus musculus [4]) was 0.2 mg/kg and the Activity (Mus musculus [5]) was “Toxic”. For the same compound, the EC50 [6] was 2 nM, the Ki (Mu-type opioid receptor) was 321 nM and the ED50 (Mus musculus [7]) was 0.1 mg/kg. For the same compound, the EC50 [8] was 794 nM, the Ki [1] was 0.47 nM and the Ki [2] was 134 nM.

For COc1ccc2c3c1O[C@H]1[C@@]4(OC)CC[C@@]5(C[C@@H]4c4ccc(/N=N/c6ccc(O)cc6)cc4)[C@@H](C2)N(CC2CC2)CC[C@]315, the Ki (Mu-type opioid receptor) was over 5000 nM, the Ki [1] was 1590 nM and the Ki [2] was over 5000 nM.

COc1ccc2c3c1O[C@H]1[C@@]4(OC)CC[C@@]5(C[C@@H]4c4ccc(N6CCNCC6)cc4)[C@@H](C2)N(CC2CC2)CC[C@]315 was tested, and the Ki (Mu-type opioid receptor) was 55.4 nM, the Ki [1] was 80 nM and the Ki [2] was 821 nM.

Work on COc1ccc2c3c1O[C@H]1[C@@]4(OC)CC[C@@]5(C[C@@H]4c4ccc(N6CCN(C(C)=O)CC6)cc4)[C@@H](C2)N(CC2CC2)CC[C@]315 yielded a Ki (Mu-type opioid receptor) of 100 nM, a Ki [1] of 121 nM and a Ki [2] of 22 nM.

COc1ccc2c3c1O[C@H]1[C@@]4(OC)CC[C@@]5(C[C@@H]4c4ccc(N6CCCC6)cc4)[C@@H](C2)N(CC2CC2)CC[C@]315 gave a Ki (Mu-type opioid receptor) of 165 nM, a Ki [1] of 310 nM and a Ki [2] of 962 nM.

CCCNc1ccc([C@H]2C[C@@]34CC[C@]2(OC)[C@@H]2Oc5c(OC)ccc6c5[C@@]23CCN(CC2CC2)[C@@H]4C6)cc1 gave a Ki (Mu-type opioid receptor) of 275 nM, a Ki [1] of 16.8 nM and a Ki [2] of 115 nM.

Compound CCOC(=O)CCNc1ccc([C@H]2C[C@@]34CC[C@]2(OC)[C@@H]2Oc5c(OC)ccc6c5[C@@]23CCN(CC2CC2)[C@@H]4C6)cc1 has a Ki (Mu-type opioid receptor) of 44.4 nM, a Ki [1] of 20.8 nM and a Ki [2] of 19.5 nM.

COc1ccc2c3c1O[C@H]1[C@@]4(OC)CC[C@@]5(C[C@@H]4c4ccc(NCCCN(C)C)cc4)[C@@H](C2)N(CC2CC2)CC[C@]315 was tested, and the Ki (Mu-type opioid receptor) was 64.2 nM, the Ki [1] was 58.6 nM and the Ki [2] was 1200 nM.

COc1ccc2c3c1O[C@H]1[C@@]4(OC)CC[C@@]5(C[C@@H]4c4ccc(N6CCN(S(=O)(=O)c7ccc(C)cc7)CC6)cc4)[C@@H](C2)N(CC2CC2)CC[C@]315 was tested, and the Ki (Mu-type opioid receptor) was 500 nM, the Ki [1] was 1550 nM and the Ki [2] was over 5000 nM.

With CN(C(=O)Cc1ccc(Cl)c(Cl)c1)C1CCCCC1N1CCCC1 (configuration not stated) the Activity (Mus musculus [9]) was “Toxic”.

COc1ccc2c3c1O[C@H]1[C@@]4(OC)CC[C@@]5(C[C@@H]4c4ccc(NCC6CC6)cc4)[C@@H](C2)N(CC2CC2)CC[C@]315 showed a Ki (Mu-type opioid receptor) of 115 nM, a Ki [1] of 19.5 nM and a Ki [2] of 87.2 nM.

With COc1ccc2c3c1O[C@H]1[C@@]4(OC)CC[C@@]5(C[C@@H]4c4ccc(N)cc4)[C@@H](C2)N(CC2CC2)CC[C@]315 the EC50 [6] was 11.3 nM, the Ki (Mu-type opioid receptor) was 45.9 nM and the EC50 [8] was 21.1 nM. The Ki [1] was 6.4 nM and the Ki [2] was 33.3 nM.

COc1ccc2c3c1O[C@H]1[C@@]4(OC)CC[C@@]5(C[C@@H]4c4ccc(N6CCN(C(=O)c7ccccc7)CC6)cc4)[C@@H](C2)N(CC2CC2)CC[C@]315 gave a Ki (Mu-type opioid receptor) of over 5000 nM, a Ki [1] of 89 nM and a Ki [2] of 48.2 nM.

In the case of CCNc1ccc([C@H]2C[C@@]34CC[C@]2(OC)[C@@H]2Oc5c(OC)ccc6c5[C@@]23CCN(CC2CC2)[C@@H]4C6)cc1, the Ki (Mu-type opioid receptor) is reported as 106 nM, the Ki [1] is reported as 16.9 nM and the Ki [2] is reported as 42.8 nM.

CNc1ccc([C@H]2C[C@@]34CC[C@]2(OC)[C@@H]2Oc5c(OC)ccc6c5[C@@]23CCN(CC2CC2)[C@@H]4C6)cc1 was tested, and the Ki (Mu-type opioid receptor) was 71 nM, the Ki [1] was 20.3 nM and the Ki [2] was 94.7 nM.

Compound COc1ccc2c3c1O[C@H]1[C@@]4(OC)CC[C@@]5(C[C@@H]4c4ccc(N6CCN(CC7CC7)CC6)cc4)[C@@H](C2)N(CC2CC2)CC[C@]315 has a Ki (Mu-type opioid receptor) of 36.1 nM, a Ki [1] of 50.3 nM and a Ki [2] of 179 nM.
